Experimental data as given in US9403866B2, “Compositions and methods for increasing telomerase activity” (Telomerase Activation Sciences, Inc., priority 2009, dated 2016).

Chains of the proteins cited; added tags and fusions are not shown. Lines headed by an entry give the natural chain unless they say otherwise; changes in a name come on top.
UniProt O14746: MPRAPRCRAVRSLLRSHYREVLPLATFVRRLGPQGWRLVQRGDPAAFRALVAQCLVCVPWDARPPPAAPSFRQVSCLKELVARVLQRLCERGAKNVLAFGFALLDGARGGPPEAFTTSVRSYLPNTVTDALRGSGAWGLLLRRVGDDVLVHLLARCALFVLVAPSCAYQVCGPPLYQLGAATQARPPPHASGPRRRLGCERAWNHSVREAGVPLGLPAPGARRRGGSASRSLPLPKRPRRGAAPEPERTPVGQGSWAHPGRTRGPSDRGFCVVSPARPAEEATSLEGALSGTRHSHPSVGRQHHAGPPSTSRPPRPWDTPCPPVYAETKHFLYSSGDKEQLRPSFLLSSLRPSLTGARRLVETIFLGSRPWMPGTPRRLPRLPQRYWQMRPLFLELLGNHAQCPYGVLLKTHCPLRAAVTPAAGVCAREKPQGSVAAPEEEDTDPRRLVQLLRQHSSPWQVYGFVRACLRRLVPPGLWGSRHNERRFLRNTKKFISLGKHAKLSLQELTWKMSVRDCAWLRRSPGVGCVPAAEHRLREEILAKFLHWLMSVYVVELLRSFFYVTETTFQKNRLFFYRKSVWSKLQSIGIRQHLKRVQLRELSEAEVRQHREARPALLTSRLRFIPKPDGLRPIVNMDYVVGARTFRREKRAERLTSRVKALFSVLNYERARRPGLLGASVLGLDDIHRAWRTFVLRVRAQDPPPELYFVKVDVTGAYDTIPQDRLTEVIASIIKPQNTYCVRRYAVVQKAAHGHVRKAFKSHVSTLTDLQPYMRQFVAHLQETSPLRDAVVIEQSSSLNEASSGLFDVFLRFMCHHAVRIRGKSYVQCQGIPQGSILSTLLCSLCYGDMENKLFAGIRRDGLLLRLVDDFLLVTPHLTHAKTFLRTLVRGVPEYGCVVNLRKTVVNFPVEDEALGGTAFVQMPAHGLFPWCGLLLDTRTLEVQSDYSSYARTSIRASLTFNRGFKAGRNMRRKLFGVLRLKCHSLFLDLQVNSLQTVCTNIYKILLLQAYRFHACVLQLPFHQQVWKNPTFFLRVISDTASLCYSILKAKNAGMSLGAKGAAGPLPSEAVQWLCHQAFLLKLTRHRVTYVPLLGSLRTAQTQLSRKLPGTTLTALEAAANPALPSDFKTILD

Target: telomerase (Homo sapiens, UniProt O14746)
Assay: In vitro model of fibrosis: TGFβ and bleomycin treated SAECs, gel TRAP assay
Format: cell-based
Conditions: bleomycin 10 ug/ml, TGFβ 10 ng/ml

## TGFβ
  effect on SAEC telomerase activity: suppressed SAEC telomerase activity
